US11976279B2, “Methods and compositions for managing vascular conditions using miR-483 mimics and HIF1alpha pathway inhibitors” (dated 2024)

Columns and labels:
porcine AV leaflets = test: Calcification of porcine AV leaflets cultured in osteogenic media, static (Alizarin Red, Arsenazo); details: 20 μM every three days, osteogenic media
porcine AVs = test: Calcification of porcine AVs sheared in fibrosa or ventricularis flow in osteogenic media (Arsenazo); details: 20 μM, 7 days
HIF1alpha = HIF1alpha expression in porcine AVs in osteogenic media; details: 20 μM every three days

N[C@@H](Cc1ccc([N+]([O-])(CCCl)CCCl)cc1)C(=O)O
AV calcification (Alizarin red, Arsenazo) (porcine AV leaflets): dramatic inhibition
total calcium levels in PAVs compared to vehicle control (Arsenazo assay) (porcine AVs): significantly decreased
HIF1alpha expression (HIF1alpha): significantly decreased
